Values quoted from earlier work as cited in article PMC4154802 (European journal of nuclear medicine and molecular imaging, 2011).

Test system: high HER2 expression tumors
Settings: in vivo

^18F-trastuzumab-Fab: 18F-labeled trastuzumab Fab, 50 kDa
tumor uptake: 1.31 %ID/g
